# Test results from PubChem BioAssay AID709 (SRMLSC, 2007).
# The entries are a selection whose mix differs from that of the whole data set. Active and inactive are the calls of the source.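 The calls were made as follows: active = at 10 µM, mean starting fluorescence two-fold or more over control wells; inactive = the rest.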
# Assay: intrinsic fluorescence of library compounds, ex339/em460 – biochemical, MLSMR library, data from DPM-DC assay, artefact control, profiling panel (AID 709);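 also: signal is the first read of a kinetic run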
# Conditions: compound autofluorescence, ex339/em460 nm, NADH buffer; at 10 µM; hits give high values; 1 = no-compound wells, NADH background
row,Compound,fluorescence fold increase
1,O=C(COc1ccccc1)OC1CN2CCC1CC2 (stereo not given),inactive: 1.07
2,COP1(=S)c2c(C)nn(CCC#N)c2N=C(c2ccc(F)cc2)N1C (stereo not given),inactive: 1.05
3,O=C(OC1CN2CCC1CC2)C12CC3CC(CC(C3)C1)C2 (stereo not given),inactive: 1.08
4,O=P(Nc1nccs1)(c1ccccc1)c1nc2ccccc2s1 (stereo not given),inactive: 1.31
5,CCOP1(=S)c2c(C)nn(CCC#N)c2N=C(c2ccccc2F)N1C (stereo not given),inactive: 0.99
6,CCOP1(=S)c2c(C)nn(CCC#N)c2N=C(c2ccc(F)cc2)N1C (stereo not given),inactive: 1.02
7,Cc1cccc(OCC(=O)OC2CN3CCC2CC3)c1 (stereo not given),inactive: 1.05
8,Clc1n[nH]nc1-c1nn[nH][15n]1,inactive: 1.13
9,O=P1(Nc2ccccn2)COc2ccccc2OC1,inactive: 1.04
10,Cc1nn(-c2ccccc2)c2c1P(=O)(N1CCOCC1)N(C)C(c1ccccc1)=N2 (stereo not given),inactive: 1.04
11,O=P1(Nc2ccc(Br)cn2)COc2ccccc2OC1,inactive: 1.15
12,Cc1ccc(OCC(=O)OC2CN3CCC2CC3)cc1 (stereo not given),inactive: 1.12
13,O=P1(Nc2ncccn2)COc2ccccc2OC1,inactive: 1.05
14,O=C(OC1CN2CCC1CC2)c1cccc(Cl)c1 (stereo not given),inactive: 1.09
15,c1nnnn1CCn1cnnn1,inactive: 1.07
16,O=P(Nc1nccs1)(c1ccccc1)c1ccccc1,inactive: 0.96
17,O=P1(Nc2nc3ccc(Cl)cc3s2)COc2ccccc2O1 (stereo not given),inactive: 1.12
18,COC(=O)c1cc2c(s1)N=C(c1ccccc1)N(C)P2(=O)N1CCOCC1 (stereo not given),inactive: 1.1
19,Cc1c2non([O-])c-2c(C)[n+](=O)[n+]1[O-],inactive: 1.06
20,CCc1nc2c(n1)c1c(non1O)c1c2no[n+]1[O-],inactive: 1.13
